The record followed here is article PMC6006426 (2018).

For this assay, the system named is GFP-fused MATE1 protein. To be noted: preliminary study.

For the molecule `C[C@@H](Oc1cc(-c2cnn(C3CCNCC3)c2)cnc1N)c1c(Cl)ccc(F)c1Cl` [Crizotinib, crizotinib], the “Change of intracellular signals of GFP-fused MATE1 protein” value is “no change”.
